scFv variants of Ab-95 (light chain) against a SARS-CoV-2 spike peptide

Source: Engelhart et al. 2022 (doi:10.1038/s41597-022-01779-4), MIT Lincoln Laboratory and A-Alpha Bio; data file from the FLAb repository.

Target peptide (SARS-CoV-2 spike, HR2 region): PDVDLGDISGINAS

Each scFv is VH, the linker GGGGSGGGGSGGGGS, VL, as in the parent Ab-95, and differs from it in the CDRs of the light chain only.
VH: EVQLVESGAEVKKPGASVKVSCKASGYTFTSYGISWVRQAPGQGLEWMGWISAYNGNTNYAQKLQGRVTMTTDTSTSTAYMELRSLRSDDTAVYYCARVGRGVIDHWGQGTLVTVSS
VL: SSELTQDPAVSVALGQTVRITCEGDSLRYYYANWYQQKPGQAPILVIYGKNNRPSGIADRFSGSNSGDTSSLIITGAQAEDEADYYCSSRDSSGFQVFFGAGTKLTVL

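Phage display of a naive human antibody library on the peptide gave the parent. In library AAYL52, one, two or three CDR residues were substituted; doubles and triples were drawn at random. The scFvs were displayed on barcoded MATa yeast, the peptide on MATalpha yeast. Pairs that bind mate more often; barcode pairs of the diploids are counted by sequencing. Each replicate has its own calibration line, from reference interactions of the BCL2 family. There are three technical replicates.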

The parent's light chain CDRs are EGDSLRYYYAN, GKNNRPS, SSRDSSGFQVF; each variant's own CDRs replace them letter for letter.
This list gathers variants with a substitution at F98 (VL, numbered from residue 1).
Values are log10 of the apparent Kd in nM; lower means stronger binding.
Averages over replicates are reported, and they cover detected replicates only.
"no signal" marks a missing value. The strain was present, yet no cells mated with the target were sequenced in any replicate, which points to weak or no binding.
Empty control strains, which show no peptide, gave a signal in 28% of pairings with library AAYL52; the median was 3.91 and 95% of these signals were weaker than 2.90. No background was subtracted.

* EGDSLRYYYAN / GKNNRPS / SSRDSSGFQVY = 1.53 (3 of 3 replicates)
* EGDSFRYYYAN / GKNNRPS / SSRYSSGFQVT = 3.65 (3 of 3 replicates)
* EVDSLRYYYAN / GKNNFPS / SSRDSSGFQVG = 4.31 (1 of 3 replicates)
* EGDSLRYYYAN / GKNNRPS / CSRDSSGFQVK = 2.84 (3 of 3 replicates)
* EGDSIRYYYAP / GKNNRPS / SSRDSSGFQVW = 4.46 (2 of 3 replicates)
* EGDSLRYYYMN / GKNQRPS / SSRDSSGFQVN = 4.83 (1 of 3 replicates)
* EKDSLRYYYAN / GKNNRVS / SSRDSSGFQVK = 4.22 (2 of 3 replicates)
* EGISLRYYYAN / GKNNRPS / SSRHSSGFQVR = 3.57 (3 of 3 replicates)
* EGDSLRMYYAN / GKNNRPS / SSRDSSGFQVS = 3.12 (3 of 3 replicates)
* EGDSLRYYYAN / GKFNRPS / SMRDSSGFQVM = 4.33 (2 of 3 replicates)
* EGDSLRYYYAN / GKCNRPS / SSRDWSGFQVV = 4.15 (3 of 3 replicates)
* EGDSLRYYYAR / GKNNRPS / SSSDSSGFQVC = no signal (0 of 3 replicates)
* EGDSLRYYYAN / GKNVRPA / SSRDSSGFQVQ = 2.89 (3 of 3 replicates)
* EGDSLRYYYDN / GKVNRPS / SSRDSSGFQVH = 3.81 (1 of 3 replicates)
* EGDWLRYYYNN / GKNNRPS / SSRDSSGFQVL = 3.26 (3 of 3 replicates)
* PGDSLRYYYNN / GKNNRPS / SSRDSSGFQVK = 4.30 (2 of 3 replicates)
* EGDSLRCYYHN / GKNNRPS / SSRDSSGFQVW = 4.03 (3 of 3 replicates)
* EGDSLRYYYAN / GKNNRPC / SSRDSSQFQVN = 4.03 (3 of 3 replicates)
* EGDSLRLYYAN / GKNNRMS / SSRDSSGFQVM = 3.99 (2 of 3 replicates)
* EKDSLRYYYAN / GKNNRPS / SSRMSSGFQVW = 4.34 (2 of 3 replicates)
* EGDSLRYYYAN / GKNNRPS / SSRDSSGFQVG = 2.71 (3 of 3 replicates)
* EGDVLRYYYAN / GKNNRPS / SWRDSSGFQVP = 3.54 (2 of 3 replicates)
* EGDSLRYYYAN / PKNNRHS / SSRDSSGFQVI = 4.18 (2 of 3 replicates)
* KGRSLRYYYAN / GKNNRPS / SSRDSSGFQVS = 2.55 (3 of 3 replicates)
* EGDSLRYYYAN / GKNNIPS / SSRDASGFQVD = no signal (0 of 3 replicates)
* EGDSLRYYYAN / GKNNRPS / SSRDSEGFPVS = 3.42 (2 of 3 replicates)
* EGDSLTYYYAN / GKNNRPS / SSRYSSGFQVP = 3.87 (1 of 3 replicates)
* EGDSLRYYYAN / GKNNSPS / SSRDSSGFQAH = 5.75 (1 of 3 replicates)
* EGDSLRYYYAN / GKNNRPS / SIRDSSFFQVK = 4.55 (1 of 3 replicates)
* EGDSLRYYEAN / GKNNRPS / SSRDDSGFQVR = 1.46 (3 of 3 replicates)
* EGDSLGYYYAM / GKNNRPS / SSRDSSGFQVH = 4.58 (3 of 3 replicates)
* EGDSLRYYYAN / GKNNFPS / SARDSSGFQVG = 3.27 (1 of 3 replicates)
* EGDSLRYYYAV / GKNNRPS / SSFDSSGFQVG = 4.25 (2 of 3 replicates)
* EGDPLRYYYAN / GKNNRPS / SSRDSSDFQVS = 4.27 (1 of 3 replicates)
* EGDSLRYYYAN / GKNNRPS / SGRESSGFQVS = 2.47 (3 of 3 replicates)
* EGDSLRYYYAN / GKNNRPS / ISRDSSCFQVA = 2.20 (3 of 3 replicates)
* EGDSLRYYYAN / GKNNRPS / SSRDYSPFQVV = no signal (0 of 3 replicates)
* EGDSLRYYYQN / GANNRPS / SSRDSSGFQVG = no signal (0 of 3 replicates)
* WGDSLRYYYAN / GKNNRPS / SSRPSSGFQVN = no signal (0 of 3 replicates)
* DGDSLRYYYGN / GKNNRPS / SSRDSSGFQVS = no signal (0 of 3 replicates)
* EGDSLRYYYFN / GKNNRPS / SSIDSSGFQVE = no signal (0 of 3 replicates)

The first 6 variants above that were never detected:

- EGDSLRYYYAR / GKNNRPS / SSSDSSGFQVC: no signal (0 of 3 replicates)
- EGDSLRYYYAN / GKNNIPS / SSRDASGFQVD: no signal (0 of 3 replicates)
- EGDSLRYYYAN / GKNNRPS / SSRDYSPFQVV: no signal (0 of 3 replicates)
- EGDSLRYYYQN / GANNRPS / SSRDSSGFQVG: no signal (0 of 3 replicates)
- WGDSLRYYYAN / GKNNRPS / SSRPSSGFQVN: no signal (0 of 3 replicates)
- DGDSLRYYYGN / GKNNRPS / SSRDSSGFQVS: no signal (0 of 3 replicates)